According to patent US5451572A, “Human relaxin formulation” (Genentech, Inc., priority 1993, dated 1995):
Where two headings read alike, the source gives them in different places.

Conditions: seven days

CC[C@H](C)[C@@H]1NC(=O)[C@H](C)NC(=O)[C@H]([C@@H](C)CC)NC(=O)[C@H](CCC(N)=O)NC(=O)[C@H](C)NC(=O)[C@H](CCCNC(=N)N)NC(=O)[C@H](C(C)C)NC(=O)[C@H](CC(C)C)NC(=O)[C@H](CCC(=O)O)NC(=O)[C@H](CCCNC(=N)N)NC(=O)CNC(=O)[C@@H](NC(=O)[C@H](CC(C)C)NC(=O)[C@H](CCCCN)NC(=O)[C@@H](NC(=O)[C@@H](NC(=O)[C@H](CCC(=O)O)NC(=O)[C@H](CCC(=O)O)NC(=O)[C@H](CCSC)NC(=O)[C@H](Cc2c[nH]c3ccccc23)NC(=O)[C@H](CO)NC(=O)[C@@H](N)CC(=O)O)C(C)C)[C@@H](C)CC)CSSC[C@@H]2NC(=O)[C@@H](NC(=O)[C@H](CCCCN)NC(=O)[C@H](CC(N)=O)NC(=O)[C@H](C)NC(=O)[C@H](CC(C)C)NC(=O)[C@H](C)NC(=O)[C@H](CO)NC(=O)[C@H](Cc3ccc(O)cc3)NC(=O)[C@H](CC(C)C)NC(=O)[C@@H]3CCC(=O)N3)CSSC[C@H](NC(=O)CNC(=O)[C@H](C(C)C)NC(=O)[C@H](Cc3c[nH]cn3)NC2=O)C(=O)N[C@@H]([C@@H](C)O)C(=O)N[C@@H](CCCCN)C(=O)N[C@@H](CCCNC(=N)N)C(=O)N[C@@H](CO)C(=O)N[C@@H](CC(C)C)C(=O)N[C@@H](C)C(=O)N[C@@H](CCCNC(=N)N)C(=O)N[C@@H](Cc2ccccc2)C(=O)N[C@H](C(=O)O)CSSC[C@@H](C(=O)NCC(=O)N[C@@H](CCSC)C(=O)N[C@@H](CO)C(=O)N[C@H](C(=O)N[C@@H](Cc2c[nH]c3ccccc23)C(=O)N[C@@H](CO)C(=O)N[C@@H](CCCCN)C(=O)N[C@@H](CCCNC(=N)N)C(=O)N[C@@H](CO)C(=O)N[C@@H](CC(C)C)C(=O)O)[C@@H](C)O)NC1=O [long relaxin]
% remaining main peak (agitated at room temperature): 98.53 ± 0.43% | % remaining main peak (control, undisturbed at room temperature): 97.84 ± 0.17%
